Data reported in patent US8377900B2, “Coumermycin/novobicin-regulated gene expression system” (National Research Council of Canada, priority 2003, dated 2013).

How the values were obtained:
[1] = test system: 293A cells; format: cell-based, Human; details: 10 μM, cell growth rate and CMV-GFP expression
Procedure: To study whether novobiocin, the monomer of coumermycin, is able to switch off the coumermycin-induced expression of luciferase, various concentrations of novobiocin were incubated together with 5 nM coumermycin in 293A cells for 40 hr. […] At a concentration of 5 μM novobiocin, however, over 98% of the coumermycin-induced luciferase expression was suppressed (FIG. 5A).

[2] = test system: K562 wild type cells; experiment: Flow cytometric analysis of apoptosis in K562 wild type (parental) cells; format: cell-based, Human; details: 5 nM coumermycin, 36 hr
Text: It has been reported that high-level expression of Bax (Bcl2-associated X protein) elicits apoptosis in a variety of human cancer cells (17). In malignant hematopoietic cells, including k562, Bax overexpression leads to apoptosis of the transfected cells through cytochrome C release (18). To evaluate the tightness of gene expression regulated by the chimeric transactivator, the apoptotic Bax gene was cloned into the transgene-expression cassette from the two-plasmid induction system previously described. […] Stable clones harboring the both plasmids were isolated and characterized following induction.

[3] = cited from earlier work
[4] = cited from earlier work; remark: listed apart in the source

Substance: coumermycin
- cellular toxicity [1]: do not exert any detectable cellular toxicity
- cell death in parental cells [2]: did not induce additional cell death
- in vivo half-life [3]: 6 h
- serum half-life ([3]; serum, in vivo): 5.5 h
- toxicity in extensive animal testing ([4]; concentrations effectively exerting antibacterial activity): no overt toxicity
- dose causing cellular toxicity in vivo ([4]; in vivo): 20 µM
